US20150322125A1

The chains behind the UniProt entries cited, without tags or fusion partners. Residues count along the entry.
UniProt P79337, 77-233 limits assumed: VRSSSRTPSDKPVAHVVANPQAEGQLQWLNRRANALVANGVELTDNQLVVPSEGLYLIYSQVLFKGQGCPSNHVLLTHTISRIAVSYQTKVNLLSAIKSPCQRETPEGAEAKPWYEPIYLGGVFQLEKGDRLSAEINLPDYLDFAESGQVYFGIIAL
UniProt Q16552, 24-155: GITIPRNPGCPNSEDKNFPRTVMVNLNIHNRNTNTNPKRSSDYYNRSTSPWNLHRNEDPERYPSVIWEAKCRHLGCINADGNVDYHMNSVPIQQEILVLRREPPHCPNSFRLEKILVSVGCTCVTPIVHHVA
UniProt P01375, 77-233 limits assumed: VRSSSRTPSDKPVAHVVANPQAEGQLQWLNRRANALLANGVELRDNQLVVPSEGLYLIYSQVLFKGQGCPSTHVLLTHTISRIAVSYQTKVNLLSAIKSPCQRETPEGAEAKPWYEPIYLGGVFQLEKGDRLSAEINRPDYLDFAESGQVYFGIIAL

Key:
[1] = target: recombinant Cynomolgus TNFα (Cynomolgus) (UniProt P79337); assay: SPR, BIAcore T200, construct captured by anti-human IgG Fc antibody, antigen injected
[2] = target: recombinant human glycosylated IL-17A (produced in-house in HEK EBNA cells) (human) (UniProt Q16552); assay: cell-based or functional assay
human TNFα (human) [3] = target: human TNFα (human) (UniProt P01375); assay: cell-based or functional assay
[4] = target: recombinant Cynomolgus glycosylated IL-17A (Cynomolgus); assay: SPR, BIAcore T200, construct captured by anti-human IgG Fc antibody, antigen injected
[5] = target: recombinant human glycosylated IL-17A (produced in-house in HEK EBNA cells) (human) (UniProt Q16552); assay: as above
human TNFα (human) [6] = target: human TNFα (human) (UniProt P01375); assay: as above

Row | Substance | Kd [1] | Apparent IC50 value (pM) for simultaneous inhibition of IL-17A and TNFα; Gro-α release by HT-29 cells stimulated with 400 pM IL-17A and 200 pM TNFα [2] | IC50 value (pM) for inhibition of IL-17A; IL-6 release by NHDF cells stimulated with 64 pM IL-17A and 10 fM IL-1β [2] | Apparent IC50 value (pM) for simultaneous inhibition of IL-17A and TNFα; Gro-α release by HT-29 cells stimulated with 400 pM IL-17A and 200 pM TNFα (human TNFα (human) [3]) | Kd [4] | Kd [5] | Kd (human TNFα (human) [6])
1 | LC11L5-B06, bispecific anti-IL-17A/TNFα antibody-Fynomer fusion (bispecific antibody) | 0.12 nM | 247 pM | 121 pM | 247 pM |  |  | 
2 | LC11L5-B06, bispecific anti-IL-17A/TNFα antibody-Fynomer fusion (bispecific antibody; other documents disagree on this pair) |  |  |  |  | 0.063 nM | 0.044 nM | 0.144 nM
3 | LC11L9-C09, bispecific anti-IL-17A/TNFα antibody-Fynomer fusion (bispecific antibody) | 0.133 nM | 222 pM | 66 pM | 222 pM |  |  | 
4 | LC11L9-C09, bispecific anti-IL-17A/TNFα antibody-Fynomer fusion (bispecific antibody; other documents disagree on this pair) |  |  |  |  | 0.07 nM | 0.048 nM | 0.089 nM
